Experimental data: patent publication US20110046170A1, “NOVEL PYRIMIDINE-PYRIDINE DERIVATIVES” (priority 2008, published 2011)

By UniProt entry, the sequences of proteins in these tests, tags left out.
UniProt P21453, whole entry: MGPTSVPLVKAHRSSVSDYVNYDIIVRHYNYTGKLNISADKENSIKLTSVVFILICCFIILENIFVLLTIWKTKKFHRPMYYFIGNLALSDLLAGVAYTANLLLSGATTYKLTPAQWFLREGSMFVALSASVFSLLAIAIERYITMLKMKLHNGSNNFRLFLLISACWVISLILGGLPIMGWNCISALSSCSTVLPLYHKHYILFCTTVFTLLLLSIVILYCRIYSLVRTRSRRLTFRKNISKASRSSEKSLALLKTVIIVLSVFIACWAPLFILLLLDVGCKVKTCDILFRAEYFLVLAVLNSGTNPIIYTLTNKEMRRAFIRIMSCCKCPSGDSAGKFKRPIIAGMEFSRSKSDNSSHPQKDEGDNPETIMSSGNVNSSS

Experiments:
human S1P1 receptor = human S1P1 receptor (Homo sapiens, UniProt P21453); assay: GTPγS assay to determine EC50 values; details: 35S-GTPγS binding, membrane preparations of CHO cells expressing recombinant human S1P1 receptor; agonistic activity
Protocol: GTPγS Assay to Determine EC50 Values
GTPγS binding assays are performed in 96 well microtiter plates (Nunc, 442587) in a final volume of 200 μl, using membrane preparations of CHO cells expressing recombinant human S1P1 receptor. Assay conditions are 20 mM Hepes (Fluka, 54461), 100 mM NaCl (Fluka, 71378), 5 mM MgCl2 (Fluka, 63064), 0.1% BSA (Calbiochem, 126609), 1 μM GDP (Sigma, G-7127), 2.5% DMSO (Fluka, 41644), 50 pM ^35S-GTPγS (Amersham Biosciences, SJ1320). The pH is 7.4. Test compounds are dissolved and diluted in 100% DMSO and pre-incubated at rt for 30 min in 150 μl of the above assay buffer, in the absence of ^35S-GTPγS. After addition of 50 μl of ^35S-GTPγS, the assay is incubated for 1 h at rt. The assay is terminated by transfer of the reaction mixture to a Multiscreen plate (Millipore, MAHFC1H60) using a cell harvester from Packard Biosciences, and the plates are washed with ice-cold 10 mM Na2HPO4/NaH2PO4 (70%/30%), dried, sealed at the bottom and, after addition of 25 μl MicroScint20 (Packard Biosciences, order# 6013621), sealed on the top. Membrane-bound ^35S-GTPγS is measured with a TopCount from Packard Biosciences.
EC50 is the concentration of agonist inducing 50% of the maximal specific ^35S-GTPγS binding. Specific binding is determined by subtracting non-specific binding from maximal binding. Maximal binding is the amount of cpm bound to the Multiscreen plate in the presence of 10 μM of S1P. Non-specific binding is the amount of binding in the absence of an agonist in the assay.

circulating lymphocytes = assay: Assessment of in vivo efficacy: circulating lymphocytes after oral administration; details: 6 h after oral administration of 10 mg/kg to normotensive male Wistar rats, compared to vehicle-treated group; mean ± SEM
Protocol: Assessment of In Vivo Efficacy
The efficacy of the compounds of formula (I) is assessed by measuring the circulating lymphocytes after oral administration of 3 to 30 mg/kg of a compound of formula (I) to normotensive male Wistar rats. The animals are housed in climate-controlled conditions with a 12 h-light/dark cycle, and have free access to normal rat chow and drinking water. Blood is collected before and 3, 6 and 24 h after drug administration. Full blood is subjected to hematology using Advia Hematology system (Bayer Diagnostics, Zurich, Switzerland).
All data are presented as mean±SEM. Statistical analyses are performed by analysis of variance (ANOVA) using Statistica (StatSoft) and the Student-Newman-Keuls procedure for multiple comparisons. The null hypothesis is rejected when p<0.05.

| Compound | EC50 (human S1P1 receptor) [nM] | Lymphocyte counts (circulating lymphocytes) [%] |
| --- | --- | --- |
| CCCc1cc(-c2nc(-c3cc(C)nc(C)c3)no2)nc(NC)n1 | 9.8 | – |
| CCNc1nc(C)cc(-c2noc(-c3cc(C)nc(C)c3)n2)n1 | 38 | – |
| Cc1cc(-c2noc(-c3cc(C)nc(N(C)CC(C)C)n3)n2)cc(C)n1 | 7.8 | −67 ± 3 |
| Cc1cc(-c2nc(-c3cc(C)nc(NCC(C)C)n3)no2)ccn1 | 5890 | – |
